According to patent US11707503B2, “Modulators of complement activity” (Ra Pharmaceuticals, Inc., priority 2015, dated 2023):

Test system: thrombin-induced complement pathway
Test: Inhibition of hemolysis in the thrombin-induced complement pathway (C5, C6, thrombin, then C7, C8, C9)
Assay type: cell-based
Protocol: These diluted samples were mixed with antibody-sensitized sheep erythrocytes (Complement Technology, Tyler, Tex.) in a 96-well microtitre plate (USA Scientific, Ocala, Fla.) and incubated at 37° C. for 5 minutes. C7 (Complement Technology, Tyler, Tex.) was then added to the wells to achieve a concentration of 15 nM and the plate was returned to 37° C. for 15 minutes. A complex of C8 (10 nM; Complement Technology, Tyler, Tex.) and C9 (25 nM; Complement Technology, Tyler, Tex.) was then added to the assay mixture and the samples were incubated for 30 minutes at 37° C.
The reaction was stopped with the addition of hirudin. The diluted samples were mixed with antibody-sensitized sheep erythrocytes and then incubated for 5 minutes at 37° C. Purified C7 was added and incubated for 15 minutes at 37° C. A complex of purified C8 and C9 was then added and the mixture was incubated for 30 minutes at 37° C.

B1: anti-C5 monoclonal antibody: an anti-C5 monoclonal antibody similar to ECULIZUMAB® (antibody, chains of the INN, looked up)
heavy: QVQLVQSGAEVKKPGASVKVSCKASGYIFSNYWIQWVRQAPGQGLEWMGEILPGSGSTEYTENFKDRVTMTRDTSTSTVYMELSSLRSEDTAVYYCARYFFGSSPNWYFDVWGQGTLVTVSSASTKGPSVFPLAPCSRSTSESTAALGCLVKDYFPEPVTVSWNSGALTSGVHTFPAVLQSSGLYSLSSVVTVPSSNFGTQTYTCNVDHKPSNTKVDKTVERKCCVECPPCPAPPVAGPSVFLFPPKPKDTLMISRTPEVTCVVVDVSQEDPEVQFNWYVDGVEVHNAKTKPREEQFNSTYRVVSVLTVLHQDWLNGKEYKCKVSNKGLPSSIEKTISKAKGQPREPQVYTLPPSQEEMTKNQVSLTCLVKGFYPSDIAVEWESNGQPENNYKTTPPVLDSDGSFFLYSRLTVDKSRWQEGNVFSCSVMHEALHNHYTQKSLSLSLG
light: DIQMTQSPSSLSASVGDRVTITCGASENIYGALNWYQQKPGKAPKLLIYGATNLADGVPSRFSGSGSGTDFTLTISSLQPEDFATYYCQNVLNTPLTFGQGTKVEIKRTVAAPSVFIFPPSDEQLKSGTASVVCLLNNFYPREAKVQWKVDNALQSGNSQESVTEQDSKDSTYSLSSTLTLSKADYEKHKVYACEVTHQGLSSPVTKSFNRGEC
inhibition of hemolysis by the thrombin-induced complement pathway in words: did not
